Sequences of proteins named here, by UniProt entry; tags and fusion partners are left off.
UniProt Q07820, whole entry: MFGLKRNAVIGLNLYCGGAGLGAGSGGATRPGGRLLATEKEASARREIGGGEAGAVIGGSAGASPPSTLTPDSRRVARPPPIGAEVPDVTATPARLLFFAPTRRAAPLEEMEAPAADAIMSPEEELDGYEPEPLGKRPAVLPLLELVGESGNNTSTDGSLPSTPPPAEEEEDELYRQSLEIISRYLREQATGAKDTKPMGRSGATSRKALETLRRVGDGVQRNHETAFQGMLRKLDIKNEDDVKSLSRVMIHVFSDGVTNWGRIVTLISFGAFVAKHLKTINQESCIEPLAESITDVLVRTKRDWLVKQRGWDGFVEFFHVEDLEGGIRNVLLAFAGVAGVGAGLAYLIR

According to ChEMBL document CHEMBL3259780, “3-Substituted-N-(4-hydroxynaphthalen-1-yl)arylsulfonamides as a novel class of selective Mcl-1 inhibitors: structure-based design, synthesis, SAR, and biological evaluation” (J Med Chem, 2014):

Legend:
Homo sapiens = species on record: Homo sapiens; assay: Selectivity ratio of Ki for His-tagged BCL2 (1 to 202) (unknown origin) to Ki for His-tagged MCL1 (171 to 327) (unknown origin)
Method in brief: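 Buffer 100 mM potassium phosphate pH 7.5 with bovine gamma globulin, azide and 0.01% Triton X-100; 3 h at room temperature. IC50 fitted, then converted to Ki.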

[1] = molecular target: Induced myeloid leukemia cell differentiation protein Mcl-1 (Homo sapiens, UniProt Q07820); assay: Binding affinity to His-tagged MCL1 (171 to 327) (unknown origin) expressed in Escherichia coli BL21(DE3) assessed as inhibition of MCL1-N-terminal biotin-labeled BIM BH3 peptide interaction after 30 mins by surface plasmon resonance analysis

Row | SMILES | Ratio Ki (Homo sapiens) | IC50 [1] [µM]
1 | O=C(O)CSc1cc(NS(=O)(=O)c2ccc(Oc3ccccc3)cc2)c2ccccc2c1O | 42 | 1.45
2 | O=C(O)CSc1cc(NC(=O)Cc2ccc(Cl)cc2)c2ccccc2c1O |  | 18.3
